# Laboratory results as given in IntAct's records for PubMed 17054981.
# B1: Nucleotide-binding oligomerization domain-containing protein 1 (Homo sapiens), Q9Y239 (parent)
# chain: MEEQGHSEMEIIPSESHPHIQLLKSNRELLVTHIRNTQCLVDNLLKNDYFSAEDAEIVCACPTQPDKVRKILDLVQSKGEEVSEFFLYLLQQLADAYVDLRPWLLEIGFSPSLLTQSKVVVNTDPVSRYTQQLRHHLGRDSKFVLCYAQKEELLLEEIYMDTIMELVGFSNESLGSLNSLACLLDHTTGILNEQGETIFILGDAGVGKSMLLQRLQSLWATGRLDAGVKFFFHFRCRMFSCFKESDRLCLQDLLFKHYCYPERDPEEVFAFLLRFPHVALFTFDGLDELHSDLDLSRVPDSSCPWEPAHPLVLLANLLSGKLLKGASKLLTARTGIEVPRQFLRKKVLLRGFSPSHLRAYARRMFPERALQDRLLSQLEANPNLCSLCSVPLFCWIIFRCFQHFRAAFEGSPQLPDCTMTLTDVFLLVTEVHLNRMQPSSLVQRNTRSPVETLHAGRDTLCSLGQVAHRGMEKSLFVFTQEEVQASGLQERDMQLGFLRALPELGPGGDQQSYEFFHLTLQAFFTAFFLVLDDRVGTQELLRFFQEWMPPAGAATTSCYPPFLPFQCLQGSGPAREDLFKNKDHFQFTNLFLCGLLSKAKQKLLRHLVPAAALRRKRKALWAHLFSSLRGYLKSLPRVQVESFNQVQAMPTFIWMLRCIYETQSQKVGQLAARGICANYLKLTYCNACSADCSALSFVLHHFPKRLALDLDNNNLNDYGVRELQPCFSRLTVLRLSVNQITDGGVKVLSEELTKYKIVTYLGLYNNQITDVGARYVTKILDECKGLTHLKLGKNKITSEGGKYLALAVKNSKSISEVGMWGNQVGDEGAKAFAEALRNHPSLTTLSLASNGISTEGGKSLARALQQNTSLEILWLTQNELNDEVAESLAEMLKVNQTLKHLWLIQNQITAKGTAQLADALQSNTGITEICLNGNLIKPEEAKVYEDEKRIICF
# Variants of: B1
# Settings: with ripk2_human RIPK2, O43353
row,Variant,effect of a mutation on the interaction
1,E53K,disrupting interaction
2,R69E,decreasing interaction
3,D54K,disrupting interaction
4,V41A,decreasing interaction
5,E56K,disrupting interaction
